Laboratory results from patent US6258825A, “2-oxoimidazole derivatives” (dated 2001).

Each compound was assayed against T1, nociceptin receptor ORL1 (Homo sapiens, UniProt P41146) (assay: Antagonism against nociceptin-elicited G protein activation). Details: read-out: IC50 Value (antagonism against nociceptin-elicited G protein activation); GTPγ[35S] binding 200 pM, 50 nM nociceptin, CHO/ORL1 membrane, SPA, pH 7.4, 25° C., 150 minutes.

In order of rising IC50:
1. O=c1n(CC(F)F)c2ccccc2n1[C@@H]1CCN(CC2CCCCCCC2)C[C@H]1CO (racemic)  5.8 nM
2. CCn1c(=O)n(C2CCN(CC3CCCCCCC3)CC2CNS(N)(=O)=O)c2ccccc21 (single isomer, unassigned)  12 nM
3. CCn1c(=O)n([C@H]2CCN(CC3CCCCCCC3)C[C@@H]2CO)c2ccccc21 (relative stereo)  18 nM
4. NCCn1c(=O)n([C@H]2CCN(CC3CCCCCCC3)C[C@@H]2CO)c2ccccc21 (relative stereo)  27 nM

The compounds below were run against T1, nociceptin receptor ORL1 (assay: Nociceptin receptor binding inhibition assay). Details: read-out: IC50 value (nociceptin receptor binding inhibition effect); [125I]Tyr14-Nociceptin 50 pM, CHO/ORL1 membrane 11 μg, SPA, pH 7.4, 37° C., 60 minutes.

In order of falling IC50:
1. NCCn1c(=O)n([C@H]2CCN(CC3CCCCCCC3)C[C@@H]2CO)c2ccccc21 (relative stereo)  3 nM
2. CCn1c(=O)n(C2CCN(CC3CCCCCCC3)CC2CNS(N)(=O)=O)c2ccccc21 (single isomer, unassigned)  2.3 nM
3. O=c1n(CC(F)F)c2ccccc2n1[C@@H]1CCN(CC2CCCCCCC2)C[C@H]1CO (racemic)  1.9 nM
4. CCn1c(=O)n([C@H]2CCN(CC3CCCCCCC3)C[C@@H]2CO)c2ccccc21 (relative stereo)  1.8 nM
